Screening data from PubChem.
Giardia killer – Small Molecules that selectively kill Giardia lamblia: qHTS; Giardia lamblia trophozoite viability; activity change, % at 7.66 µM, hits read low; 340,000 tested, 0.15% active; AID 540267, 2011; in the data active means activity change below about -80%; inconclusive means between about -30% and that limit;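 further: parasites exposed to compound for two days anaerobically before the ATP read; on the % scale 0 is the no-effect control and ±100 the full control effect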
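Giardia lamblia trophozoites (100 cells/well) were incubated with compounds for 48 h at 37 deg C under anaerobic conditions. Viability was read as ATP content by one-step luminescence after 15-30 min at room temperature.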
a7 integrin act – qHTS for Activators of Integrin-Mediated Alleviation for Muscular Dystrophy. 350,000 tested, 0.064% active. AID 624291, 2012. Potency, µM (top dose mostly 38.3 µM), for the others: at the highest dose activation, usual class: activators. alpha7betagal myoblasts, beta-gal FDG fluorescence, 48 h; active means well fitted activation curve with a large enough effect; inconclusive means small, poorly fitted or top-dose-only effect; inactive means no such curve, though single readings can be large or run the other way;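 further: potency means the concentration at half of the fitted maximal effect; 100% = response of the positive control SU9516; nearly all actives have a fitted effect of over 60% in size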
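Alpha7betagal+/- myoblasts (passage 13) were plated 16-24 hr, then exposed to compounds (1:260 dilution of DMSO stock) for 48 hours at 37C. After MPER lysis, β-galactosidase reporter activity was read as FDG fluorescence (ex 480/em 540) after 30 minutes.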
uPA surface inh – qHTS for Inhibitors of Cell Surface uPA Generation | cell surface uPA generation assay, qHTS | Potency, µM (top dose mostly 38.3 µM), for the others: at the highest dose activity change, negative = inhibition, usual class: inhibitors | 330,000 tested, 0.31% active | AID 540303, 2011; active means well fitted inhibition curve with a large enough effect; inconclusive means small, poorly fitted or top-dose-only effect; inactive means no such curve, though single readings can be large or run the other way; tested in mouse RAW 264.7 cells; further: potency means the concentration at half of the fitted maximal effect; on the % scale 0 is the no-effect control and ±100 the full control effect; nearly all actives have a fitted effect of over 55% in size
Rango dissoc inh – qHTS Assay for Inhibitors of RanGTP induced Rango (Ran-regulated importin-beta cargo) - Importin beta complex dissociation | Snurportin-1 (Homo sapiens) + GTP-binding nuclear protein Ran (Homo sapiens) + Importin … | Biochemical FRET Rango-importin beta, RanGTP-induced dissociation | Potency, µM (top dose mostly 46.1 µM), inactives show at the top dose activity change, negative = inhibition | 340,000 tested, 0.071% active; further: potency means the concentration at half of the fitted maximal effect; % of control where 0% means no effect; nearly all actives have a fitted effect of over 45% in size
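Compounds sat 5 min at room temperature with 0.1 uM Rango biosensor plus 0.25 uM importin beta, then FRET pre-read. RanGTP-RCC1 (0.6 uM Ran, 2mM GTP, 0.2 uM RCC1) added for 45 min, and the CFP/YFP post-read measured blocked complex dissociation.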
Rango-impB inh – qHTS Assay for Inhibitors of Rango (Ran-regulated importin-beta cargo) - Importin beta complex formation | Rango CFP/YFP FRET sensor + importin beta, 45 min | 340,000 tested, 0.031% active | Potency, µM (highest dose often 92.2 µM), without a hit: at the top dose inhibition of complex formation | AID 540263, 2011;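 further: potency means the concentration at half of the fitted maximal effect; 0% = DMSO wells and 100% = buffer wells lacking importin beta; nearly all actives have a fitted effect of over 15% in size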
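Inhibition scored from the CFP 486 nm/YFP 530 nm FRET ratio 45 min after adding 0.125 microM importin beta to 50 nM Rango biosensor preincubated 5 min with compound (room temperature, PBS with DTT, Tween-20, BSA). No-importin wells as positive control.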
Starred values were filed as active, the others as inactive; ? = inconclusive; nt = no result given; [ ] = remark or other dose. Hits are enriched below; roughly 0.59% of the tested compounds scored in any of these assays. Unless noted, the call rests on the fitted dose curve.

The first four records (preview)
1	Cc1ccc(S(=O)(=O)N2C[C@@H]3[C@H]4CC[C@H](C4)[C@@H]3[C@@H](C)[C@@H]2c2ccn([Si](C(C)C)(C(C)C)C(C)C)c2)cc1
2	C=CCN(C(C(=O)OC)C(C)C)S(=O)(=O)CCl (configuration not stated)
3	CC(C)C(=O)N1CCN(c2ccccc2NC(=O)c2ccc([N+](=O)[O-])o2)CC1
4	CCC(=O)N1CCN(c2ccccc2NC(=O)c2ccc([N+](=O)[O-])o2)CC1

Screen / compound no.	1	2	3	4
Giardia killer	4	-10	-89*	-90*
a7 integrin act	2%	nt	-21%	-67%
uPA surface inh	13%	nt	-12%	-3%
Rango dissoc inh	14%	nt	1%	-1%
Rango-impB inh	-3%	nt	-2%	0%

The listing, from the first entry:
1	Cc1ccc(S(=O)(=O)N2C[C@@H]3[C@H]4CC[C@H](C4)[C@@H]3[C@@H](C)[C@@H]2c2ccn([Si](C(C)C)(C(C)C)C(C)C)c2)cc1
2	C=CCN(C(C(=O)OC)C(C)C)S(=O)(=O)CCl (configuration not stated)
3	CC(C)C(=O)N1CCN(c2ccccc2NC(=O)c2ccc([N+](=O)[O-])o2)CC1
4	CCC(=O)N1CCN(c2ccccc2NC(=O)c2ccc([N+](=O)[O-])o2)CC1
5	O=C(Nc1ccccc1N1CCCC1)c1ccc([N+](=O)[O-])o1
6	O=C(Nc1ccccc1N1CCN(C(=O)c2ccccc2)CC1)c1ccc([N+](=O)[O-])o1

Screen / compound no.	1	2	3	4	5	6
Giardia killer	4	-10	-89*	-90*	?	-86*
a7 integrin act	2%	nt	-21%	-67%	-55%	-28%
uPA surface inh	13%	nt	-12%	-3%	?	-11%
Rango dissoc inh	14%	nt	1%	-1%	8%	-1%
Rango-impB inh	-3%	nt	-2%	0%	-1%	-2%

7	CC1CCN(c2ccccc2NC(=O)c2ccc([N+](=O)[O-])o2)CC1
8	CC(C)C(=O)N1CCN(c2ccccc2NC(=O)c2ccc(Br)o2)CC1
9	CCCNC(=O)N(C)C[C@H]1Oc2ncc(C#CCc3ccccc3)cc2C(=O)N([C@H](C)CO)C[C@H]1C
10	CCOC(=O)c1c(SCCN2CCCCC2)n(-c2ccccc2)c(=S)n(-c2ccccc2)c1=O
11	CNC(=O)c1ccc2nc(-c3ccco3)c(-c3ccco3)nc2c1
12	CC(C)c1ccc(NC(=O)C2CC(=O)N(C(C)C)C2)cc1 (configuration not stated)

Screen / compound no.	7	8	9	10	11	12
Giardia killer	-24	-6	nt	10	5	-2
a7 integrin act	-27%	-6%	-13%	-6%	nt	4%
uPA surface inh	1%	2%	nt	6%	nt	-2%
Rango dissoc inh	4%	-12%	nt	2%	nt	18%
Rango-impB inh	0%	1%	nt	4%	nt	4.1µM*

13	CC(C)N1CC(C(=O)Nc2ccc(C#N)cc2)CC1=O (configuration not stated)
14	O=[N+]([O-])c1c(Nc2ccccc2O)cc(N2CCOCC2)c2nonc12
15	O=[N+]([O-])c1cncc([N+](=O)[O-])c1Nc1cccc(O)c1
16	O=[N+]([O-])c1cc([N+](=O)[O-])c2nonc2c1Nc1ccccc1O
17	CC(=O)c1ccc(Nc2c([N+](=O)[O-])ccc3nonc23)cc1
18	O=[N+]([O-])c1cc([N+](=O)[O-])c2nonc2c1Nc1ccc(O)cc1

Screen / compound no.	13	14	15	16	17	18
Giardia killer	7	-2	?	-7	-5	-2
a7 integrin act	12%	0%	30%	-44%	-20%	-62%
uPA surface inh	-24%	-24%	10µM*	5.6µM*	0%	11µM*
Rango dissoc inh	14%	-25%	9%	?	15%	?
Rango-impB inh	0%	-1%	2%	?	-1%	?

19	Cc1cccc(C)c1NC(=O)CN(c1c(C)cccc1C)S(C)(=O)=O
20	CCCN1CNc2c(c(=O)[nH]c(=S)n2CCc2ccc(Cl)c(Cl)c2)C1
21	COc1ccccc1NC(=O)NNC(=O)C(C)Oc1ccc2ccccc2c1 (configuration not stated)
22	CCC1CCC(C(=O)NC(C(=O)NCCN2CCOCC2)C(C)C)CC1 (configuration not stated)
23	O=C(/C=C/Nc1ccccc1)c1ccc(Cl)cc1Cl
24	Cc1ccc(S(=O)(=O)N2CCCCC2CCNC(=O)C(=O)NCc2ccccc2)cc1 (configuration not stated)

Screen / compound no.	19	20	21	22	23	24
Giardia killer	nt	14	-9	4	25	6
a7 integrin act	-6%	nt	1%	6%	-12%	0%
uPA surface inh	nt	nt	6%	3%	10µM*	8.9µM*
Rango dissoc inh	nt	nt	5%	-2%	-10%	1%
Rango-impB inh	nt	nt	-1%	-3%	?	-1%

25	O=C(NC(=C(Cl)Cl)S(=O)(=O)c1ccc(Cl)cc1)c1ccccc1
26	COc1cc(OC)cc(C(=O)NCC(=O)N2CC=C(c3ccccc3)CC2)c1
27	N#Cc1nc(N)nc(N2CCCCC2)n1
28	Cc1cc(C(=O)N/N=C/c2ccc([N+](=O)[O-])cc2)c2ccccc2n1
29	Cc1ccccc1C(=O)N/N=C/c1ccc([N+](=O)[O-])s1
30	Cc1cc(C(=O)N/N=C/c2ccc([N+](=O)[O-])s2)c2ccccc2n1

Screen / compound no.	25	26	27	28	29	30
Giardia killer	-3	10	-21	2	?	-95*
a7 integrin act	-12%	-7%	nt	16%	-53%	-38%
uPA surface inh	8.9µM*	4.5µM*	nt	2.8µM*	?	-13%
Rango dissoc inh	-10%	4%	nt	-1%	-4%	16%
Rango-impB inh	-3%	-2%	nt	-3%	?	1%

31	Cc1cc(C(=O)N/N=C/c2cc([N+](=O)[O-])ccc2O)c2ccccc2n1
32	CCOC(=O)C1CCN(C(=O)c2ccc3nc(-c4ccc(OC)cc4)c(-c4ccc(OC)cc4)nc3c2)CC1
33	O=C1c2ccccc2NC(c2cc(Br)c3c(c2)OCO3)N1Cc1ccco1 (configuration not stated)
34	COC(=O)c1ccc(C2c3[nH]c4ccccc4c3C[C@H]3C(=O)N(C)CC(=O)N23)cc1 (some centres not stated)
35	CN1CC(=O)N2C(c3cccc([N+](=O)[O-])c3)c3[nH]c4ccccc4c3C[C@H]2C1=O (some centres not stated)
36	O=C1[C@@H]2Cc3c([nH]c4ccccc34)C(c3cccc([N+](=O)[O-])c3)N2C(=O)CN1CCCO (some centres not stated)

Screen / compound no.	31	32	33	34	35	36
Giardia killer	8	-3	-1	11	10	-9
a7 integrin act	-10%	-42%	nt	0%	0%	-40%
uPA surface inh	-8%	7%	nt	-4%	0.4µM*	-12%
Rango dissoc inh	-29%	16µM*	nt	-25%	-11%	-1%
Rango-impB inh	?	?	nt	-3%	0%	3%

37	CN1CC(=O)N2C(c3ccc(Cl)cc3)c3[nH]c4ccccc4c3C[C@H]2C1=O (some centres not stated)
38	Cc1csc(NC(=O)CSc2nc3[nH]c(=O)cc(O)c3s2)n1
39	CC(=O)Oc1cccc(N2C(=O)c3cccc4c([N+](=O)[O-])ccc(c34)C2=O)c1
40	CS(=O)(=O)N(Cc1ccc(C(=O)NC2CCCC2)cc1)c1ccccc1
41	CN(c1ccccc1)S(=O)(=O)c1ccc(C(=O)OCC(=O)NCc2cccs2)cc1
42	Cc1ccc(C(=O)NCCc2cccs2)cc1
43	CN(c1ccc(C(=O)NCc2cccs2)cc1)S(=O)(=O)c1ccccc1
44	COc1ccc(C2=NCCn3nc4cc(C(F)(F)F)ccc4c32)cc1

Screen / compound no.	37	38	39	40	41	42	43	44
Giardia killer	-5	-87*	-6	4	-11	?	6	-19
a7 integrin act	-76%	-37%	-66%	10µM*	?	16%	-7%	-5%
uPA surface inh	5.6µM*	-1%	?	2%	?	5µM*	2.2µM*	-2%
Rango dissoc inh	-5%	6%	1.8µM*[inhibitor]	1%	9%	28%	-3%	?
Rango-impB inh	0%	-5%	?	3%	2%	-1%	-4%	-3%
